Biological target: OX1R (Homo sapiens, UniProt O43613)
Test: FLIPR Tetra calcium assay, OX1R inhibition
Format: cell-based

The chains behind the UniProt entries cited, without tags or fusion partners.
UniProt O43613, whole entry: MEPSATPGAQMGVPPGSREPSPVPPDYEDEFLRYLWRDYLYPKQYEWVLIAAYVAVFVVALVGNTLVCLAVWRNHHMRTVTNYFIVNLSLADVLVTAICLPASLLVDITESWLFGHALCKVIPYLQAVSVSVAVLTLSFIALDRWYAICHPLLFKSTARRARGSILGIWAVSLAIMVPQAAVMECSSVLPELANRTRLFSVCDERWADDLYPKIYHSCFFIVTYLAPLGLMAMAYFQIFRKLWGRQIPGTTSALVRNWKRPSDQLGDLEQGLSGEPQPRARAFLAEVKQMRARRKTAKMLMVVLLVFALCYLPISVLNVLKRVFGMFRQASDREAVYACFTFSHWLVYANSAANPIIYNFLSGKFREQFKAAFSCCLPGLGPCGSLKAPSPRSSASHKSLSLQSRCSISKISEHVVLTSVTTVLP

Cc1ccc(-n2nccn2)c(C(=O)N2CCN(c3nc4cc(Cl)ccc4o3)CC[C@H]2C)c1 [Suvorexant]
IC50: 140 nM
